IC50 data for one compound are collected here from patent US8222288B2, “Small molecule inhibitors of MDM2 and the uses thereof” (The Regents of the University of Michigan, priority 2006, dated 2012).

This test concerns HCT116 p53KO cells. Briefly: Cell growth inhibition, HCT116 p53KO. The following applies: Homo sapiens, HCT-116, read-out: HCT116 p53KO IC50 (μM), HCT116 p53KO; single runs and mean ± SD line.

Regarding `COC(C)(C)C[C@H]1N[C@@H](C(=O)NCC[C@H](O)CO)[C@H](c2ccc(F)c(Cl)c2)[C@@]12C(=O)Nc1cc(Cl)c(F)cc12` [MI-319-7], the IC50 is more than 30 µM.
